Source: patent US20230044248A1, “COMBINED INHIBITION OF PD-1, TGFBeta AND ATM TOGETHER WITH RADIOTHERAPY FOR THE TREATMENT OF CANCER” (ARES TRADING S.A., priority 2019, published 2023)

Columns and labels:
4T1 cells [1] = experiment: Example 3: triple combination versus dual and monotherapy controls, 4T1 mammary tumor model; conditions: p<0.0001, day 14; bintrafusp alfa 492 μg i.v. day 0, 2, 4; Compound A 100 mg/kg p.o. days 0-4
4T1 cells [2] = experiment: Example 2: dosing schedule of Compound A in the triple combination, 4T1 mammary tumor model; conditions: p<0.0001, day 14; bintrafusp alfa 492 μg i.v. day 0, 2, 4; RT 8 Gy day 0-3
4T1 cells [3] = experiment: Example 1: bintrafusp alfa, RT and Compound A in the 4T1 mammary tumor model; assay type: in vivo, BALB/c mice; conditions: p<0.0001, day 13; bintrafusp alfa 492 μg i.v. day 0, 2, 4; RT 8 Gy day 0-3
MC38 cells = experiment: Example 5: triple combination versus dual and monotherapy controls, intramuscular MC38 murine colon carcinoma model; conditions: day 65; bintrafusp alfa 164 μg i.v. Day 0; RT 1.8Gy QDx4; Compound A 100 mg/kg p.o. QDx4 where given

| Compound | tumor growth relative to isotype control (monotherapies) (4T1 cells [1]) | tumor growth relative to isotype control (4T1 cells [2]) | tumor growth relative to isotype control (4T1 cells [3]) | mice showing tumor free survival (MC38 cells) |
| --- | --- | --- | --- | --- |
| COc1cc2ncc3c(c2cc1-c1cn(C)nc1C)n(-c1c(F)cncc1OC)c(=O)n3C [Compound A, 8-(1,3-Dimethyl-1H-pyrazol-4-yl)-1-(3-fluoro-5-methoxy-pyridin-4-yl)-7-methoxy-3-methyl-1,3-dihydro-imidazo[4,5-c]quinolin-2-one] | significantly inhibited |  |  |  |
| bintrafusp alfa: anti-PD-L1/TGFβ Trap fusion protein; light chain SEQ ID NO: 7, heavy chain fused to TGFβRII extracellular domain SEQ ID NO: 8 | significantly inhibited |  |  |  |
| bintrafusp alfa and RT: dual combination therapy of bintrafusp alfa with radiotherapy (RT) |  | significantly inhibited tumor growth | significantly inhibited tumor growth | 6 of 10 |
